Values of other authors as cited in patent publication US20170065579A1, “Sustained Release Low Dose Formulations and Uses Thereof” (priority 2015, published 2017).

Conditions: in vivo; cited from earlier work

## C=CCN1CC[C@]23c4c5ccc(O)c4O[C@H]2C(=O)CC[C@@]3(O)[C@H]1C5 [naloxone]
  oral bioavailability: poor oral bioavailability
